How the values were obtained:
MAO-A = target: T1, MAO-A (Homo sapiens, UniProt P21397); test: MAO-A activity and inhibition assay (peroxidase-coupled, tyramine); format: biochemical; details: ratio of k(inact)/Ki(inact)
T1 construct: purchased Sigma M 7316
Procedure: (§1) MAO-A was purchased from Sigma (product number: M 7316). MAO-B was purchased from Sigma (product number: M 7441). MAO-A/B activity was measured spectrophotometrically using a peroxidase-coupled assay as previously described. Forneris, F., et al. (2005). 100 μL reactions were initiated by the addition of 2 μL of MAO-A/B (to obtain 100-200 nM final concentration for MAO-A and 0.837 M final concentration for MAO-B) to reaction mixtures consisting of 50 mM HEPES buffer (pH 7.5), 0.1 mM 4-aminoantipyrine, 1 mM 3,5-dichloro-2-hydroxybenzenesulfonic acid, 0.04 mg/mL horseradish peroxidase (Worthington Biochemical Corporation), and appropriate concentration of buffered substrate (tyramine). Absorbance changes were measured at 515 nm using a Beckman Instruments DU series 600 spectrophotometer equipped with a thermostatted cell holder (T=25° C.), and product formation was calculated using the extinction coefficient of 26,000 M^−1.
(§2) […]. Reactions were run at similar conditions as previously stated with 125 µM tyramine substrate for MAO-A and with 125-1,000 M tyramine substrate for MAO-B. Progress curves were then fit accordingly to eqs 1-3 as previously stated. Each experiment was repeated at least two independent times and repeat measured values were typically within 20% of each other.

Sequences of proteins named here, by UniProt entry; tags and fusion partners are left off.
UniProt P21397, whole entry: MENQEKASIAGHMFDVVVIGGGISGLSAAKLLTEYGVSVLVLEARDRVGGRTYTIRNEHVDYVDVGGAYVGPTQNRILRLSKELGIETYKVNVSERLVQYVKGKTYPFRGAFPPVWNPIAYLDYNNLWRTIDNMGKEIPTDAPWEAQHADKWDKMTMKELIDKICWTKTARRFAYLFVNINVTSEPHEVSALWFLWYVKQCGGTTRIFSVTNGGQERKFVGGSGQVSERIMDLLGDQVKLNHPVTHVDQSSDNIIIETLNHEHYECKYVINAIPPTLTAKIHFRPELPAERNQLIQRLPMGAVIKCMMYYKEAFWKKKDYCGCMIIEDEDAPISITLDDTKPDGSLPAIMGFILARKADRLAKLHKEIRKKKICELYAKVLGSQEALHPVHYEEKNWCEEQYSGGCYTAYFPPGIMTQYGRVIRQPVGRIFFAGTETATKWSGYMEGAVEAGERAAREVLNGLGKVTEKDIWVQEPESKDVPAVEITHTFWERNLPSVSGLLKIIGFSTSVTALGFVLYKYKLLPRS
UniProt P27338, whole entry: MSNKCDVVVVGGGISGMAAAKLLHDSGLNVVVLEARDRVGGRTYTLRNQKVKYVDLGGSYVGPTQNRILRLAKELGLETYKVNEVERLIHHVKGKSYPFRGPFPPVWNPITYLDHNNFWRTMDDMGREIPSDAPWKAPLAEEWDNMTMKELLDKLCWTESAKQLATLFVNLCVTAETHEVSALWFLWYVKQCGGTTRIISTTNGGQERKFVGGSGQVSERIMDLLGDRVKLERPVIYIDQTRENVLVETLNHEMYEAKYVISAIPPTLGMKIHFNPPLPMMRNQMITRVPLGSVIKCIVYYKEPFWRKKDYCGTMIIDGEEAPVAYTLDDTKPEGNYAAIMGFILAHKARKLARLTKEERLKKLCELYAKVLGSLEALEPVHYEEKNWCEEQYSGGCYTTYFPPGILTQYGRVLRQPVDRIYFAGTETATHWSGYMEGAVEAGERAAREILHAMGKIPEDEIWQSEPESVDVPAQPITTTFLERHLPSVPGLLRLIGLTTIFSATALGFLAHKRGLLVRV

MAO-B = target: T2, MAO-B (Homo sapiens, UniProt P27338); test: MAO-B activity and inhibition assay (peroxidase-coupled, tyramine); format: biochemical; details: ratio of k(inact)/Ki(inact)
T2 construct: purchased Sigma M 7441
Procedure: as §1, §2

NNCCc1ccccc1 [phenelzine]
Selectivity for LSD1 vs. Enzyme Tested (MAO-A): 0.217 | Selectivity for LSD1 vs. Enzyme Tested (MAO-B): 1.24

— patent publication US20170029366A1, “INHIBITORS OF HISTONE LYSINE SPECIFIC DEMETHYLASE (LSD1) AND HISTONE DEACETYLASES (HDACS)” (THE JOHNS HOPKINS UNIVERSITY, priority 2014, published 2017)
